These results are taken from ChEMBL document CHEMBL3425420 (J Med Chem, 2015).

Chains of the proteins cited; added tags and fusions are not shown.
UniProt P10415, whole entry: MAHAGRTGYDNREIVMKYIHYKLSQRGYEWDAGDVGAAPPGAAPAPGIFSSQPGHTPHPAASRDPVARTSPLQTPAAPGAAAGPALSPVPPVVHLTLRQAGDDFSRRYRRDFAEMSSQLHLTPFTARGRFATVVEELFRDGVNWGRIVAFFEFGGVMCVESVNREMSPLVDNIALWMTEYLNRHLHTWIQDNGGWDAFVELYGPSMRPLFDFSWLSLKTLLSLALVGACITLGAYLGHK
UniProt Q07817, whole entry: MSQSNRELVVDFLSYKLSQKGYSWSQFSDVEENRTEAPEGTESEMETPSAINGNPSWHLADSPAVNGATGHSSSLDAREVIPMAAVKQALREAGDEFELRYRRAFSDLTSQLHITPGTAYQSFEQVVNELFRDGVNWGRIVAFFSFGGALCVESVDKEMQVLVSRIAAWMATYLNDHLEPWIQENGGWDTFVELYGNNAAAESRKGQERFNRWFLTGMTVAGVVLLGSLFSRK

pKi: −log10 of the molar value.

The first test deals with Apoptosis regulator Bcl-2 (Homo sapiens, UniProt P10415). As to the kind of experiment: Displacement of FITC-Bak-BH3 peptide from Bcl-2 (unknown origin) incubated for 1.5 hrs by FPA competition assay. The method in brief: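 Compounds were added as a 10-point, 3-fold serial dilution and incubated 1.5 h at room temperature. The anisotropy change was fitted to a four-parameter variable-slope curve for IC50, converted to Ki, and duplicates were averaged.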
By pKi is commonly meant the Ki on a negative log10 scale, so that one unit is a factor of ten. A low value points to a high Ki. As for `O=C(O)c1c(CCCOc2cccc3c2CCCC3)c2cccc3c2n1CCS3`, the pKi was 5.43.
Turning to `O=C(O)c1c(CCCOc2cccc3ccccc23)c2cccc3c2n1CCC3`, the pKi was 5.14.
`O=C(O)c1c(CCCOc2cccc3ccccc23)c2cccc3c2n1CCO3` had a pKi of 5.24. The pKi values of the last two compounds are within 0.2 log units of each other.
On to `Cc1cc(OCCCc2c(C(=O)O)n3c4c(cccc24)SCCC3)cc(C)c1Cl`, for which the pKi is 5.43.
As to `Cc1cc(OCCCc2c(C(=O)O)n3c4c(c(Cl)ccc24)CCC3)cc(C)c1Cl`, the pKi was 6.11.
Take `Cc1cc(OCCCc2c(C(=O)O)n3c4c(c(Cl)ccc24)OCC3)cc(C)c1Cl`: the negative-log Ki (pKi) was 5.89. Compared with the last compound, the pKi is 0.22 log units lower.

The target in another test is Bcl-2-like protein 1 (Homo sapiens, UniProt Q07817). As to the kind of experiment: Displacement of FITC-Bak-BH3 peptide from Bcl-xL (unknown origin) incubated for 1.5 hrs by FPA competition assay. The method in brief:
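4 nM Bcl-xL with 10 nM FITC-Bak-BH3 peptide in 20 mM TRIS pH 7.5, 50 mM NaCl, 3 mM DTT, 5% final DMSO. Compounds were added as a 10-point, 3-fold serial dilution and incubated 1.5 h at room temperature. IC50 came from a four-parameter fit of the anisotropy change, was converted to Ki, and duplicate values were averaged.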
As to `Cc1cc(OCCCc2c(C(=O)O)n3c4c(cccc24)CCC3)cc(C)c1Cl`, the pKi was 5.11.
Same read-out and setting: then `O=C(O)c1c(CCOc2cccc3ccccc23)c2cccc3c2n1CCS3`, with 5.05.
